PubChem BioAssay AID588819 (The Scripps Research Institute Molecular Screening Center, 2011)
Values joined by “and” are separate entries in the source; they are usually repeats but may differ in a detail not shown here. Identical values can stand only once. This is a selection; strong and weak results do not stand in their true shares. Active and inactive are the calls of the source. Cut-off read from the data, not from the text of the source: active = activation above about 19% (passing the limit was not always enough); inactive = the rest.

Protein sequences, listed by entry. Tags and fused reporters are not part of them. Lines headed by an entry give the natural chain unless they say otherwise; changes in a name come on top.
UniProt P11229: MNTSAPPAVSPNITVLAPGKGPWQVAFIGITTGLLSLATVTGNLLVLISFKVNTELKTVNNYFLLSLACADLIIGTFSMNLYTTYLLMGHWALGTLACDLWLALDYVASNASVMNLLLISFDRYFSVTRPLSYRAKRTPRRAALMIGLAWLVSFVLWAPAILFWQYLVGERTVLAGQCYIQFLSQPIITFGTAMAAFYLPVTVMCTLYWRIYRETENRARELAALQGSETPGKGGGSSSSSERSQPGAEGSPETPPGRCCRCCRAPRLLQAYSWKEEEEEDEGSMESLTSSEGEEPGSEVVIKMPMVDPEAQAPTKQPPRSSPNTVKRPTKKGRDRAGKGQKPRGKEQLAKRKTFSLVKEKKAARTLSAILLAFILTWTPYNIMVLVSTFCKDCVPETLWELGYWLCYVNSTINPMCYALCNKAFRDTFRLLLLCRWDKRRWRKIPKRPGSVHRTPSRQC

molecular target: Muscarinic acetylcholine receptor M1 (Homo sapiens) (UniProt P11229); experiment: CHRM1 PAMs potentiating acetylcholine calcium signal – CHO-K1 cells, Fluo-8 calcium fluorescence, 1536-well, primary screen (AID 588819); details: CHO-K1 hM1, Fluo-8 calcium fluorescence, ACh EC20; at 3 µM; stronger effect = higher value; 0% = ACh EC20, 100% = maximal ACh

| Structure (SMILES) | activation |
| --- | --- |
| CCN(C(=O)COC(=O)C(O)(c1ccccc1)c1ccccc1)c1c(N)n(Cc2ccccc2)c(=O)[nH]c1=O | inactive: 14.3% |
| CC(NC(=O)COC(=O)C(O)(c1ccccc1)c1ccccc1)c1ccccc1 (stereo not drawn) | inactive: -6.11% |
| Cc1ccccc1OP(=O)(Nc1ccccn1)Oc1ccccc1C | inactive: 0.14% |
| O=c1c2cc([N+](=O)[O-])ccc2[nH]c2c([N+](=O)[O-])cc([N+](=O)[O-])cc12 | inactive: -5.74% |
| CN(C)C(=O)Oc1noc2ccccc12 | inactive: 1.56% |
| COC(=O)c1cc2c(s1)N=C(c1ccccc1)N(C)P2(=O)N1CCOCC1 (stereo not drawn) | inactive: 10.1% |
| Cc1ccc(OP(=O)(Nc2ccccn2)Oc2ccc(C)cc2)cc1 | inactive: -5.91% |
| CC(=O)NC(SC(=S)N(CC(C)C)CC(C)C)C(Cl)(Cl)Cl (stereo not drawn) | inactive: 9.89% |
| O=C(OC1CN2CCC1CC2)c1ccccc1 (stereo not drawn) | inactive: -29.1% |
| CCC(=O)N1C2C3N(C(=O)CC)C1C1N(C(=O)CC)C(C(N1C(=O)CC)N3C(=O)CC)N2C(=O)CC | inactive: 8.2% |
| Clc1ccc(N2CCN(Cc3c[nH]c4ncccc34)CC2)cc1 | inactive: -7.7% |
| O=P1(N(CCCl)CCCl)OCCC2CCCCN21 (stereo not drawn) | inactive: 16% |
| CC1C(=O)OC2CCN3CC4OC4(COC(=O)C(C)(O)C1(C)O)C23 (stereo not drawn) | inactive: 9.99% |
| CCNC(=S)/N=C(\N)N[N+](=O)[O-] | inactive: 3.5% |
| O=C(NC1CCS(=O)(=O)C1)NP(=S)(Oc1ccccc1)Oc1ccccc1 (stereo not drawn) | inactive: -9.22% |
| c1ccc(-c2nn[nH]n2)c(-c2nn[nH]n2)c1 | inactive: 7.59% |
| C=C1C(=O)OC2CCN3CC=C(COC(=O)C(C)(O)C4(CO4)C1C)C23 (stereo not drawn) | inactive: 1.81% |
| Cc1ccc(NP(=O)(Oc2cccc(C)c2)Oc2cccc(C)c2)nc1 | inactive: 9.78% |
| CC(=O)Nc1ccc([As](=O)(O)O)c(O)c1 | inactive: 10.9% |
| CC(=O)Nc1ccc(Oc2c([N+](=O)[O-])cc([N+](=O)[O-])cc2[N+](=O)[O-])cc1 | inactive: 7.01% |
| CC(=O)c1ccc(N2CC2c2ccncc2)cc1 (stereo not drawn) | inactive: 6.44% |
| N#C/C(=C\c1ccc(N(CCBr)CCBr)cc1)C(N)=O | inactive: 3.38% |
| COC(=O)C1(C)COP(=O)(NCc2ccccc2)OC1 (stereo not drawn) | inactive: 3.01% |
| CC1C(=O)OC2CCN3CC=C(COC(=O)C(C)(O)C1(C)O)C23 (stereo not drawn) | inactive: -0.14% |
| Cc1ccccc1CN(C)C(=O)COC(=O)C(O)(c1ccccc1)c1ccccc1 | inactive: 10.3% |

| Structure (SMILES) | activation |
| --- | --- |
| CCN(CC)CCOC(=O)C(O)(c1ccccc1)c1ccccc1 | inactive: -25.1% |
| C[C@H]1OP(=O)(Oc2ccccc2)C[C@@H]2O[C@@H]21 (stereo partly drawn) | inactive: 11% |
| C[C@@H]1C=CCP(=O)(Oc2ccccc2)O1 (stereo partly drawn) | inactive: 7.23% |
| CCc1cc(O)c([N+](=O)[O-])c(C)c1[N+](=O)[O-] | inactive: 3.43% |
| CC(C)(C)C(=O)NC(Sc1ccccc1)C(Cl)(Cl)Cl (stereo not drawn) | inactive: -5.72% |
| O=P1(Nc2nc3ccc(Cl)cc3s2)COc2ccccc2O1 (stereo not drawn) | inactive: 5.17% |
| CCOc1ccc(C2=NCC(CBr)S2)cc1 (stereo not drawn) | inactive: 1.1% |
| COc1cc(C2NCCC3(OCCO3)C2(C)C)cc(OC)c1OC (stereo not drawn) | inactive: 1.57% |
| CCOP(=O)(Nc1cccc2ccccc12)OCC | inactive: 14.8% |
| C[C@H]1C(=O)O[C@@H]2CCN3CC=C(COC(=O)[C@](C)(O)[C@]1(C)O)[C@H]23 | inactive: 1.29% |
| CCCOP(=S)(Nc1nc(N)cc(=O)[nH]1)OCCC | inactive: 0.33% |
| Nc1cccc2c([As](=O)(O)O)cccc12 | inactive: -3.21% |
| Cc1ccc(NCCc2c([N+](=O)[O-])cc([N+](=O)[O-])cc2[N+](=O)[O-])cc1 | inactive: 1.01% |
| COc1ccc(C[C@H]2NC[C@H](O)[C@H]2OC(C)=O)cc1 | inactive: 3.11% |
| Cc1cccc(OCC(=O)OC2CN3CCC2CC3)c1 (stereo not drawn) | inactive: -18.4% |
| O=[As](O)(c1cccc(O)c1)c1cccc(O)c1 | inactive: 13.5% |
| O=[As](O)(O)c1cccnc1 | inactive: 7.44% |
| CS(=O)(=O)c1ccc(Cl)c(NC(=O)COC(=O)C(O)(c2ccccc2)c2ccccc2)c1 | inactive: -2.04% |
| O=C(OC1CN2CCC1CC2)c1ccc(Cl)cc1 (stereo not drawn) | inactive: -25.9% |
| O=[N+]([O-])c1ccc2c(c1)nnn2O | inactive: 2.35% |
| CN(C)C(=O)c1cc([N+](=O)[O-])cc2c1-c1c(cc([N+](=O)[O-])cc1[N+](=O)[O-])C2=O | inactive: 2.32% |
| CN(C(=O)Cc1ccc(Cl)c(Cl)c1)[C@H]1CC[C@@]2(CCCO2)C[C@@H]1N1CCCC1 | inactive: -6.05% |
| N#CCCN(C(=O)COC(=O)C(O)(c1ccccc1)c1ccccc1)c1ccc(F)cc1 | inactive: 2.51% |
| CCOP1(=S)c2c(C)nn(CCC#N)c2N=C(c2ccc(F)cc2)N1C (stereo not drawn) | inactive: 8.58% |
| CN(C(=O)Cc1ccccc1)[C@@H]1CC[C@]2(CCCO2)C[C@H]1N1CCCC1 | inactive: -0.25% |

| Structure (SMILES) | activation |
| --- | --- |
| COc1ccc(CC(C)NCC(O)c2ccc(O)c(NC=O)c2)cc1 (stereo not drawn) | inactive: -0.9% and inactive: 4.5% |
| NC(=O)Nc1ccc([As](=O)(O)O)cc1 | inactive: -0.97% |
| Nc1ccccc1[As](=O)(O)c1ccccc1 | inactive: -0.23% |
| O=C(O)COc1ccc([As](=O)(O)O)cc1[N+](=O)[O-] | inactive: 10.2% |
| CS(=O)(=O)c1cc([N+](=O)[O-])c2no[n+]([O-])c2c1 | inactive: 6.82% |
| CCOP1(=S)c2c(C)nn(CCC#N)c2N=C(c2ccccc2F)N1C (stereo not drawn) | inactive: 2.53% |
| O=P(Nc1nccs1)(Oc1ccccc1)Oc1ccccc1 | inactive: -1.05% |
| O=P(Nc1nccs1)(c1ccccc1)c1nc2ccccc2s1 (stereo not drawn) | inactive: -1.77% |
| O=[As](O)(c1cccs1)c1cccs1 | inactive: 12.8% |
| Cc1ccc(OCC(=O)OC2CN3CCC2CC3)cc1 (stereo not drawn) | inactive: -16.5% |
| O=P1(Nc2ccc(Br)cn2)COc2ccccc2OC1 | inactive: 2.81% |
| NS(=O)(=O)c1cccc(NC(=O)COC(=O)C(O)(c2ccccc2)c2ccccc2)c1 | inactive: 15.7% |
| Nc1cccc([As](=O)(O)c2ccccc2)c1 | inactive: 0.86% |
| O=[N+]([O-])c1cc([As](=O)(O)O)ccc1O | inactive: -7.73% |
| O=P1(Nc2ncccn2)COc2ccccc2OC1 | inactive: 5.58% |
| Cc1ccc(S(=O)(=O)N(CCCN)CCCc2c(C)nc(N)[nH]c2=O)cc1 | inactive: 6.02% |
| O=C(/C=C/c1ccccc1)OC1CN2CCC1CC2 (stereo not drawn) | inactive: 0.1% |
| CCCC1OP(=O)(Nc2ccccc2)OCC1CC (stereo not drawn) | inactive: -7.78% |
| Cc1nn(-c2ccccc2)c2c1P(=O)(N1CCOCC1)N(C)C(c1ccccc1)=N2 (stereo not drawn) | inactive: 2.43% |
| CC1CCC(C(C)C)C(OP(=O)(Nc2ccccn2)c2ccccc2)C1 (stereo not drawn) | inactive: 0.27% |
| Cc1ccc(C(=O)OC2CN3CCC2CC3)cc1 (stereo not drawn) | inactive: -6.65% |
| CC1(CBr)Cn2c(nc3ccccc3c2=O)S1 (stereo not drawn) | inactive: 5.68% |
| CC(C)/C=N\N=C(\N)N[N+](=O)[O-] | inactive: 4.61% |
| CN(C(=O)Cc1ccc(Cl)c(Cl)c1)[C@@H]1CCCC[C@H]1N1CCCC1 | inactive: -1.29% |
| COc1ccccc1CNC(=O)COC(=O)C(O)(c1ccccc1)c1ccccc1 | inactive: 3.58% |

| Structure (SMILES) | activation |
| --- | --- |
| O=P1(N(CCCl)CCCl)NCCC(C(F)(F)F)O1 (stereo not drawn) | inactive: 2.89% |
| Clc1n[nH]nc1-c1nn[nH][15n]1 | inactive: 12.6% |
| CC(C)(C)C(=O)NC(Sc1ncccn1)C(Cl)(Cl)Cl (stereo not drawn) | inactive: 2.58% |
| CCOP(=O)(Nc1ccc(C)cn1)OCC | inactive: 4.61% |
| CN(CCCl)Cc1cc(Cl)c(NC2=NCCN2)c(Cl)c1 | inactive: -2.57% |
| O=P1(Nc2ccccn2)COc2ccccc2OC1 | inactive: 11.5% |
| CCC1=CC2Cc3nc4ccc(Cl)cc4c(N)c3C(C1)C2 (stereo not drawn) | inactive: -11.4% |
| CCOP(=O)(NC(=NC(C)c1ccccc1)NC(C)c1ccccc1)OCC (stereo not drawn) | inactive: 7.07% |
| CCC(C)N(CC(C)C)C(=S)SC(NC(C)=O)C(Cl)(Cl)Cl (stereo not drawn) | inactive: 11.6% |
| CCOC(=O)c1ccc(NC(=O)C(C)(CCl)SC)cc1 (stereo not drawn) | inactive: 9.2% |
| O=C(OC1CN2CCC1CC2)c1cccc([N+](=O)[O-])c1 (stereo not drawn) | inactive: -14.1% |
| CSc1ccc(Nc2c([N+](=O)[O-])cc([N+](=O)[O-])cc2[N+](=O)[O-])cc1 | inactive: -15.5% |
| O=C(COc1ccccc1)OC1CN2CCC1CC2 (stereo not drawn) | inactive: -22.7% |
| O=C(Nc1ccncc1[N+](=O)[O-])c1ccc([N+](=O)[O-])cc1[N+](=O)[O-] | inactive: 4.41% |
| O=C(O)C(=O)c1ccc(N(CCCl)CCCl)cc1 | inactive: 3.6% |
| COP1(=S)c2c(C)nn(CCC#N)c2N=C(c2ccc(F)cc2)N1C (stereo not drawn) | inactive: -3.11% |
| COC(=O)C1(C)COP(=O)(N2CCCC2)OC1 (stereo not drawn) | inactive: 10.4% |
| O=[N+]([O-])c1ccc(Nc2ccc(Oc3ccc([N+](=O)[O-])cc3[N+](=O)[O-])cc2)c([N+](=O)[O-])c1 | inactive: -2.83% |
| O=P(Nc1ccccn1)(c1cccc2ccccc12)c1cccc2ccccc12 | inactive: 12.1% |
| Cc1cc(SC(NC=O)C(Cl)(Cl)Cl)ncn1 (stereo not drawn) | inactive: 17.8% |
| CCOC(=O)Nc1cccc([As](=O)(O)O)c1 | inactive: 18.8% |
| Cc1cc(SC(NC(=O)c2ccccc2)C(Cl)(Cl)Cl)nc(C(C)C)n1 (stereo not drawn) | inactive: 3.01% |
| COP(=O)(OC)N1CC1c1ccccc1 (stereo not drawn) | inactive: 5.22% |
